Source: ChEMBL document CHEMBL3085655, “4β-Methyl-5-(3-hydroxyphenyl)morphan opioid agonist and partial agonist derived from a 4β-methyl-5-(3-hydroxyphenyl)morphan pure antagonist” (J Med Chem, 2013)

By UniProt entry, the sequences of proteins in these tests, tags left out.
UniProt P35372, whole entry: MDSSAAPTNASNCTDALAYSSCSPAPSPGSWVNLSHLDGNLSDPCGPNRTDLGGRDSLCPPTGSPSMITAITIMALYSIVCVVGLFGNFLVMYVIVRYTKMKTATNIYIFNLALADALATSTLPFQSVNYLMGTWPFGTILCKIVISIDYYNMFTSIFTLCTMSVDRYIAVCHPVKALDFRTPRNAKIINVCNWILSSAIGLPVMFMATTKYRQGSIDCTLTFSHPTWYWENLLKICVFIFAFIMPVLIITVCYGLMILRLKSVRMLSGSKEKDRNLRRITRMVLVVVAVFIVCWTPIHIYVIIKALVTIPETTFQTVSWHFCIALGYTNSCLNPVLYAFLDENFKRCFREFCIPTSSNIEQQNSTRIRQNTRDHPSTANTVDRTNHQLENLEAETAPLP

Biological target: Mu-type opioid receptor (Homo sapiens, UniProt P35372)
Test: Intrinsic activity at human mu opioid receptor expressed in CHO cells by [35S]GTPgammaS binding assay
Type: functional, cell-based

Work on `C[C@@H]1CN(CCCc2ccccc2)[C@@H]2CCC[C@]1(c1cccc(O)c1)C2` yielded an Intrinsic activity greater than 5 µM.
